Results as given in ChEMBL document CHEMBL3714717, “Family of PFKFB3 inhibitors with anti-neoplastic activities” (2013).
Calls of active or inactive are those of the source. The calls are words filed in the database; no cut-off is given here.

Sequences of proteins named here, by UniProt entry; tags and fusion partners are left off. A change or cut given only in a name is not applied to a line headed by its entry.
UniProt Q16875: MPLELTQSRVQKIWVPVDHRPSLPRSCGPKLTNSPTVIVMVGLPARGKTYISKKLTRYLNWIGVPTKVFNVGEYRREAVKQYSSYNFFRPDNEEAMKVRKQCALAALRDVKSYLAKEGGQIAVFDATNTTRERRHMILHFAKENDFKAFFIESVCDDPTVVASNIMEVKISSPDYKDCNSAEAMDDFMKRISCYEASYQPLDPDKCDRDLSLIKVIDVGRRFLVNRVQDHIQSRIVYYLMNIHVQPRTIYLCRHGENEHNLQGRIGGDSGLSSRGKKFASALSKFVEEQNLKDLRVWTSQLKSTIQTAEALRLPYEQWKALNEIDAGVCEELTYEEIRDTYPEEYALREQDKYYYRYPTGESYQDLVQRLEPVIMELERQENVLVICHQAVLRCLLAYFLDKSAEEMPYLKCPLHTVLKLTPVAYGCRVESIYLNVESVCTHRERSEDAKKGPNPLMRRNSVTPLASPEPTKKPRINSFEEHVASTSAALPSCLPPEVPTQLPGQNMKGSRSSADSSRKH

Molecular target: 6-phosphofructo-2-kinase/fructose-2,6-bisphosphatase 3 (Homo sapiens, UniProt Q16875)
Assay: Mixed type inhibition of human PFKFB3 expressed in Escherichia coli BL21 (DE3) assessed as reduction in NADH consumption in presence of high levels of fructose-6-phosphate incubated for 15 mins by spectrophotometry based pyruvate kinase and LDH enzyme coupled kinetic assay

## O=C(/C=C/c1cccnc1)c1ccncc1
  inhibition: inactive
